Assay results from ChEMBL document CHEMBL1152407, “Identification of inhibitors of checkpoint kinase 1 through template screening” (J Med Chem, 2009).

How the values were obtained:
[1] = target: T1, Serine/threonine-protein kinase Chk1 (Homo sapiens, UniProt O14757)
T1 sequence (O14757 whole entry): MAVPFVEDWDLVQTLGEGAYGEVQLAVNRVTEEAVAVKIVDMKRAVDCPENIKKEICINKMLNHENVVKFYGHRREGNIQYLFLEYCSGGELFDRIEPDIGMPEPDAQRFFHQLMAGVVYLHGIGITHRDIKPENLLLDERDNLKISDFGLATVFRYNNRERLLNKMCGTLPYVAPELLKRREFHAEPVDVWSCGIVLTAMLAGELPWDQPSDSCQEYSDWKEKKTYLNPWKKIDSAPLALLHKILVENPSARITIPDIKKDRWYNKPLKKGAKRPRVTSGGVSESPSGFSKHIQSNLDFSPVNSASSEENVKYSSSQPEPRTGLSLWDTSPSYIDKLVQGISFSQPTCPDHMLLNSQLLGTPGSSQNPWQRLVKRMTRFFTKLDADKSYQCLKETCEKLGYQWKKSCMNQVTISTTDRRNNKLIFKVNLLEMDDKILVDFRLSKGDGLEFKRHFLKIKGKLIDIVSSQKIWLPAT

[2] = Selectivity ratio of IC50 for CHK2 to IC50 for CHK1

Row | SMILES | IC50 [1] | Ratio IC50 [2]
1 | NC[C@H]1CN(c2c(-c3ccccc3)cnc3[nH]ncc23)CCO1 | 0.86 µM | 
2 | NC[C@@H]1CN(c2c(-c3ccccc3)cnc3[nH]ncc23)CCO1 | 0.7 µM | 8
3 | NCC1CN(c2c(-c3ccccc3)cnc3[nH]ncc23)CCO1 (racemic) | 0.89 µM | 
